Test results as given in patent publication US20250381185A1, “CDK4/PARP1 DUAL-TARGET INHIBITOR AND USE THEREOF” (YANBIAN UNIVERSITY, priority 2024, published 2025).

Protein sequences, listed by entry. Tags and fused reporters are not part of them.
UniProt P11802, whole entry: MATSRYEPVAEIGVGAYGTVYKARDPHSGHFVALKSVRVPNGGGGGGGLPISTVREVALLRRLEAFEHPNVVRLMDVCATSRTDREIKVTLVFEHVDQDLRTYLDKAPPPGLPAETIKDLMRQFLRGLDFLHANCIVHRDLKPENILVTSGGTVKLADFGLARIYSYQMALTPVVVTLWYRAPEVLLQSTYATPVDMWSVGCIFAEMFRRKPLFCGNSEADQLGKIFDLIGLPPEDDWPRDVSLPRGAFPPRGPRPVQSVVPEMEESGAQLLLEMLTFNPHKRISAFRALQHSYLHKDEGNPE
UniProt P09874, whole entry: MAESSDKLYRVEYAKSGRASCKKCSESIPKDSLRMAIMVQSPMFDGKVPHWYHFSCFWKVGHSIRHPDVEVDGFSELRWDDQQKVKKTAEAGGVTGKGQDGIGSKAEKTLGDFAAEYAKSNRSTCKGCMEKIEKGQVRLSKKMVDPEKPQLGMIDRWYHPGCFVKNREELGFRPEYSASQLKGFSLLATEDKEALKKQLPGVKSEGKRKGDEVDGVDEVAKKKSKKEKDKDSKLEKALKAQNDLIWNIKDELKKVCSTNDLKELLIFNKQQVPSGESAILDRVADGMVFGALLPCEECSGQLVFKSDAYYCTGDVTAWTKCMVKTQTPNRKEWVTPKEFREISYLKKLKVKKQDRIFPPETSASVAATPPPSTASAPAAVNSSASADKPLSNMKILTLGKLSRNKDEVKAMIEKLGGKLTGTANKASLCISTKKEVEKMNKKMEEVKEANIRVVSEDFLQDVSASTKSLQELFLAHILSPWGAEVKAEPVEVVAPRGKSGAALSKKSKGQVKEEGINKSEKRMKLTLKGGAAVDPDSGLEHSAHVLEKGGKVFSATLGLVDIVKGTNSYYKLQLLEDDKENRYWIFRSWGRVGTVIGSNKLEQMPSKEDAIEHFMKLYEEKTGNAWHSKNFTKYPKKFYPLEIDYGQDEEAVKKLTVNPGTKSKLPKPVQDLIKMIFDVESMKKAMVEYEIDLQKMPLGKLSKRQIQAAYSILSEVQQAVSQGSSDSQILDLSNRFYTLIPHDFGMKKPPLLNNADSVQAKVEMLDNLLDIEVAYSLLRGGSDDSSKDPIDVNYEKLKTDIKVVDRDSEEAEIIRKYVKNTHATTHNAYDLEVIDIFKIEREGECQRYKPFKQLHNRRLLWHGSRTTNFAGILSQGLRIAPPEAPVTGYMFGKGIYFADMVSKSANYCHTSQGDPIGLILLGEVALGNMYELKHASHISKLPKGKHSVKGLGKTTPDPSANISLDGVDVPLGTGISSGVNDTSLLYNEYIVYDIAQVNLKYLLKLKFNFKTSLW
UniProt P24385, whole entry partner: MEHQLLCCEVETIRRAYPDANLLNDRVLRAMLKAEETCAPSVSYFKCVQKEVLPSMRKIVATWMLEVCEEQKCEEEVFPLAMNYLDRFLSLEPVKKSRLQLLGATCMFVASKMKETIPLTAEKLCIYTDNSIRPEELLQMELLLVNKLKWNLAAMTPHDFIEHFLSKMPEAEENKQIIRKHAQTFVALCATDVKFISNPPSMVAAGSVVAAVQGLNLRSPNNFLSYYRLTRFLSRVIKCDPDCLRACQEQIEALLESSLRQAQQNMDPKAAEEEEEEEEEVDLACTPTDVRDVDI

Key:
[1] = target: CDK4 (Homo sapiens, UniProt P11802); experiment: IC50 of dual-target inhibitors against CDK4; details: read-out: IC50 CDK4
[2] = target: PARP1 (Homo sapiens, UniProt P09874); experiment: IC50 of dual-target inhibitors against PARP1; details: read-out: IC50 PARP1

Row | Structure (SMILES) | IC50 [1] [nM] | IC50 [2] [nM]
1 | CN(C)C(=O)c1cc2cnc(NCCCCCCCCNC(=O)c3cc(Cc4n[nH]c(=O)c5ccccc45)ccc3F)nc2n1C1CCCC1 | > 500 | > 500
2 | CN(C)C(=O)c1cc2cnc(NC3CCN(C(=O)c4cc(Cc5n[nH]c(=O)c6ccccc56)ccc4F)CC3)nc2n1C1CCCC1 | 10 to 100 | < 10
3 | CN(C)C(=O)c1cc2cnc(NNC(=O)CNC(=O)c3cc(Cc4n[nH]c(=O)c5ccccc45)ccc3F)nc2n1C1CCCC1 | > 500 | < 10
4 | CN(C)C(=O)c1cc2cnc(NCCCCNC(=O)c3cc(Cc4n[nH]c(=O)c5ccccc45)ccc3F)nc2n1C1CCCC1 | > 500 | < 10
5 | CN(C)C(=O)c1cc2cnc(NCCNC(=O)c3cc(Cc4n[nH]c(=O)c5ccccc45)ccc3F)nc2n1C1CCCC1 | > 500 | 10 to 100
6 | C[C@H](NC(=O)c1cc(Cc2n[nH]c(=O)c3ccccc23)ccc1F)C(=O)NNc1ncc2cc(C(=O)N(C)C)n(C3CCCC3)c2n1 | > 500 | 10 to 100
7 | CN(C)C(=O)c1cc2cnc(Nc3ccc(N4CCN(C(=O)c5cc(Cc6n[nH]c(=O)c7ccccc67)ccc5F)CC4)cn3)nc2n1C1CCCC1 | < 10 | < 10
8 | CN(C)C(=O)c1cc2cnc(NCCCCCNC(=O)c3cc(Cc4n[nH]c(=O)c5ccccc45)ccc3F)nc2n1C1CCCC1 | > 500 | < 10
9 | CN(C)C(=O)c1cc2cnc(N3CCCN(C(=O)c4cc(Cc5n[nH]c(=O)c6ccccc56)ccc4F)CC3)nc2n1C1CCCC1 | > 500 | 10 to 100
10 | C[C@H](NC(=O)c1cc(Cc2n[nH]c(=O)c3ccccc23)ccc1F)C(=O)NCCNc1ncc2cc(C(=O)N(C)C)n(C3CCCC3)c2n1 | > 500 | 100 to 500
11 | CN(C)C(=O)c1cc2cnc(NNC(=O)[C@H](Cc3c[nH]c4ccccc34)NC(=O)c3cc(Cc4n[nH]c(=O)c5ccccc45)ccc3F)nc2n1C1CCCC1 | > 500 | 10 to 100
12 | CN(C)C(=O)c1cc2cnc(NCCCCCCCNC(=O)c3cc(Cc4n[nH]c(=O)c5ccccc45)ccc3F)nc2n1C1CCCC1 | > 500 | 10 to 100
13 | CN(C)C(=O)c1cc2cnc(NCCCNC(=O)c3cc(Cc4n[nH]c(=O)c5ccccc45)ccc3F)nc2n1C1CCCC1 | 100 to 500 | < 10
14 | CN(C)C(=O)c1cc2cnc(NNC(=O)[C@H](Cc3ccccc3)NC(=O)c3cc(Cc4n[nH]c(=O)c5ccccc45)ccc3F)nc2n1C1CCCC1 | > 500 | 100 to 500
